Like-named read-outs stand apart in the source and are kept apart here.
Columns and labels:
[1] = system: severe preeclampsia/HELLP syndrome; assay type: in vivo, human
Procedure: A nulliparous person at 26 weeks gestation, with no significant medical history and normal BMI (19.8 kg/m^2) presented to their local hospital with severe epigastric pain. […] They were diagnosed with HELLP syndrome; betamethasone was administered for fetal maturation and magnesium sulfate for seizure prophylaxis, and they were transferred to our institution for anticipated delivery and neonatal support.
On arrival the patient was afebrile with normal neurologic status; blood pressure was 161/88 mmHg and labwork confirmed ongoing hemolysis, elevated liver enzymes and low platelets. Since there are several imitators of severe preeclampsia/HELLP syndrome, we performed an extensive work-up for alternative etiologies; also, review of medical history and prenatal records discovered no pre-existing hypertension, renal disease, or clotting disorder.
Routine studies, including serum creatinine, bilirubin, fibrinogen, coagulation studies, and glucose were normal; ANA screen and viral hepatitis panel were negative. Given no evidence for acute fatty liver of pregnancy, thrombotic thrombocytopenic purpura, hemolytic uremic syndrome, or systemic lupus erythematosus, we felt that the clinical presentation was most consistent with severe preeclampsia/HELLP syndrome. Ultrasound estimated fetal weight was 893 g (11th percentile) with normal amniotic fluid and diminished umbilical artery dopplers. Neonatal consult was obtained, after which the patient expressed reticence to be delivered due to newborn risks of marked prematurity and inquired about alternative treatment approaches. We discussed preeclampsia/HELLP syndrome as a systemic inflammatory disorder with the complement cascade a key mediator.
The patient's initial course was complicated by escalating blood pressures and pulmonary edema, which responded to Labetalol and Lasix, respectively. […] By treatment day 6, LDH, haptoglobin, AST, and platelet count normalized, FIG. 5a-b.
(§1) Fetal status was reassuring as indicated by continuous fetal heart monitoring, daily biophysical profile and umbilical artery dopplers; a 24 h urine collection was completed and measured 383 mg protein. […] That day blood pressures rose necessitating addition of Nifedipine. Of note, a trough level of Eculizumab was sub-therapeutic to block complement-dependent hemolysis (Alexion Pharmaceuticals). By 24 h after the second infusion, blood pressures improved and Labetalol was discontinued.
On treatment day 16, a 24 h urine collection measured 4522 mg of protein. Concomitantly, blood pressures rose (140-160/90-100 mmHg) and laboratory parameters began to worsen, FIG. 5a-b. Due to worsening status, delivery was recommended. Cesarean delivery was performed at 29 2/7 wks gestation, resulting in a neonate weighing 1220 g, with Apgars 4 and 8 at 1 and 5 min. The placenta was severely fragmented, weighing 155 g. Post-operatively there was spontaneous diuresis; blood pressure and lab parameters improved. Two units of packed red blood cells were transfused for symptomatic anemia (Hgb 6.9 g/dL). The patient was discharged on post-operative day 4 and remained well postpartum, discontinuing Nifedipine at 6 weeks. Postpartum evaluation for antiphospholipid antibodies was negative.
While not wishing to be bound by any particular theory, we believe in our case that increasing placental mass and feto-placental debris ultimately tipped the balance toward inflammation, overwhelming the initial complement inhibition and resulting in resurgent disease. Future investigations would help correlate the clinical changes seen with levels of investigational biomarkers such as complement proteins, angiogenic markers or inflammatory cytokines Nevertheless, pregnancy was prolonged by 17 days, allowing further fetal growth and maturation and likely resulting in reduced neonatal morbidity with its associated short and long-term health care costs.

[2] = Eculizumab levels in maternal blood, cord blood and breast milk (Alexion Pharmaceuticals); assay type: in vivo, human
Procedure: as §1
The neonate was intubated at 10 min of life for respiratory support and admitted to the NICU. They were extubated the following morning after one dose of surfactant; blood cultures were negative; and head ultrasound was normal. NICU course was notable for a patent ductus arteriosus (responsive to Indomethacin) and inguinal hernia repair (day 67), after which they were discharged home in good condition. There were trace levels of Eculizumab in cord blood samples taken at delivery, thought secondary to contamination with maternal blood.

[3] = literature [15]; cited from earlier work

With Eculizumab the “24 h urine collection protein” value ([1]; after first dose, before re-dosing on treatment day 7) was 383 mg, the blood pressures ([1]; by 24 h after the second infusion (treatment day 7)) was “improved” and the “LDH, haptoglobin, AST, and platelet count” value ([1]; by treatment day 6, Eculizumab 1200 mg, one patient) was “normalized”. For the same substance, the adverse effects ([1]; human, in vivo) was “without apparent adverse effects”, the “clinical and laboratory parameters” value ([1]; one patient, overall outcome) was “marked improvement” and the “pregnancy prolonged by” value ([1]; one patient, three doses of Eculizumab) was 17 days. For the same substance, the “24 h urine collection protein” value ([1]; treatment day 16, after third dose) was 4522 mg, the “cord blood level lower than the maternal concentration” value ([2]; at delivery) was 20 fold and the “Eculizumab in the breast milk” value ([2]; breast milk) was “no detectable”. The “cord blood level of Eculizumab” value ([2]; cord blood samples taken at delivery) was 15 µg/mL, the “trough level of Eculizumab, to block complement-dependent hemolysis” value ([2]; treatment day 7, maternal) was “sub-therapeutic” and the “safety of use in pregnancy” value [3] was “appears safe to use in pregnancy”.

Source: patent US20150330989A1, “METHOD AND SYSTEM FOR DIAGNOSING AND TREATING PREECLAMPSIA” (THE BRIGHAM AND WOMEN'S HOSPITAL, INC., priority 2012, published 2015)
